Results on one molecule are retold here after patent publication US20110275559A1, “Long-Acting Y2 and/or Y4 Receptor Agonists” (Novo Nordisk A/S, priority 2008, published 2011).

The structures appear in SMILES notation. Marks after values point to notes of the source that are not given here.

One test relates to lean rats. Nature of the test: Acute food intake in lean rats. It counts as in vivo.
In the next test the test system is lean C57BL/6 mice. Nature of the test: Acute food intake in fasted lean mice (BioDAQ, fasting-induced refeeding). It counts as in vivo. As to conditions: for Mean cumulative food intake [g] / Mean cumulative food intake: Table 4.

For `CC[C@H](C)[C@H](N)C(=O)N[C@@H](CCCCN)C(=O)N1CCC[C@H]1C(=O)N[C@@H](CCC(=O)O)C(=O)N[C@@H](C)C(=O)N1CCC[C@H]1C(=O)NCC(=O)N[C@@H](CCC(=O)O)C(=O)N[C@@H](CC(=O)O)C(=O)N[C@@H](C)C(=O)N[C@@H](CO)C(=O)N1CCC[C@H]1C(=O)N[C@@H](CCC(=O)O)C(=O)N[C@@H](CCC(=O)O)C(=O)N[C@@H](CC(C)C)C(=O)N[C@@H](CC(N)=O)C(=O)N[C@@H](CCCNC(=N)N)C(=O)N[C@@H](Cc1ccc(O)cc1)C(=O)N[C@@H](Cc1ccc(O)cc1)C(=O)N[C@@H](C)C(=O)N[C@@H](CO)C(=O)N[C@@H](CC(C)C)C(=O)N[C@@H](CCCNC(=N)N)C(=O)N[C@@H](Cc1c[nH]cn1)C(=O)N[C@@H](Cc1ccc(O)cc1)C(=O)N[C@@H](CC(C)C)C(=O)N[C@@H](CC(N)=O)C(=O)N[C@@H](CC(C)C)C(=O)N[C@H](C(=O)N[C@H](C(=O)N[C@@H](CCCNC(=N)N)C(=O)N[C@@H](CCC(N)=O)C(=O)N[C@@H](CCCNC(=N)N)C(=O)N[C@@H](Cc1ccc(O)cc1)C(N)=O)[C@@H](C)O)C(C)C` [SEQ ID NO: 1, hPYY(3-36)], in the test with lean rats (Study 8A, single s.c. injection, 1.0 μmol/kg), the “effect on acute food intake compared to vehicle” value was “not statistically significant”. In addition, in the test on lean rats (Study 8B, 1.0 μmol/kg s.c.), the “effect on food intake compared to vehicle” value was “no effect on food intake”. The “Mean cumulative food intake” value in the test on lean rats (Table 11, Study 8A, single 1.0 μmol/kg s.c., 16 hours after injection, vehicle 24.46) is reported as 22.74 g; with lean rats (Table 12, Study 8B, 1.0 μmol/kg s.c., 6 hours after injection, vehicle 12.65), 10.72 g; in the test on lean rats (Table 12, Study 8B, 1.0 μmol/kg s.c., 8 hours after injection, vehicle 14.57) it was 14.36 g; with lean rats (Table 12, Study 8B, 1.0 μmol/kg s.c., 12 hours after injection, vehicle 24.14), 23.86 g; with lean rats (Table 12, Study 8B, 1.0 μmol/kg s.c., 24 hours after injection, vehicle 29.68) it was 28.88 g; in the test with lean rats (Table 12, Study 8B, 1.0 μmol/kg s.c., 36 hours after injection, vehicle 51.26), 52.97 g. The “Mean cumulative food intake” value was found to be 58.53 g in the test with lean rats (Table 12, Study 8B, 1.0 μmol/kg s.c., 48 hours after injection, vehicle 56.08); 6.72 g in the test with lean rats (Table 12, Study 8B, single 1.0 μmol/kg s.c., 4 hours after injection, vehicle 7.38); 1.18 g in the test with lean C57BL/6 mice (mice, 1.0 μmol/kg s.c., 4 hours after injection, vehicle 1.48); 1.75 g in the test with lean C57BL/6 mice (mice, 1.0 μmol/kg s.c., 6 hours after injection, vehicle 1.90); 2.23 g in the test with lean C57BL/6 mice (mice, 1.0 μmol/kg s.c., 8 hours after injection, vehicle 2.42); 3.21 g with lean C57BL/6 mice (mice, 1.0 μmol/kg s.c., 12 hours after injection, vehicle 3.59). Besides, the “Mean cumulative food intake” value in the test with lean C57BL/6 mice (mice, 1.0 μmol/kg s.c., 24 hours after injection, vehicle 4.41) is listed as 4.14 g. Also, the “time after administration at which the effect in reducing food intake has disappeared” value in the test with lean C57BL/6 mice (Example 5, lean fasted-refed C57BL/6 mice, 1 μmol/kg s.c.) is 6 h. Also, the “Mean cumulative food intake [g]” value in the test on lean C57BL/6 mice (lean fasted-refed C57BL/6 mice, single 1.0 μmol/kg s.c., 1 hour after injection, vehicle 0.41) is recorded as 0.06* g; in the test on lean C57BL/6 mice (mice, 1.0 μmol/kg s.c., 2 hours after injection, vehicle 0.70), 0.37* g; in the test with lean C57BL/6 mice (mice, 1.0 μmol/kg s.c., 3 hours after injection, vehicle 1.17), 0.78* g.
